Measured values as given in PMC5216056 (2017).

Chains of the proteins cited; added tags and fusions are not shown.
UniProt P34972, whole entry: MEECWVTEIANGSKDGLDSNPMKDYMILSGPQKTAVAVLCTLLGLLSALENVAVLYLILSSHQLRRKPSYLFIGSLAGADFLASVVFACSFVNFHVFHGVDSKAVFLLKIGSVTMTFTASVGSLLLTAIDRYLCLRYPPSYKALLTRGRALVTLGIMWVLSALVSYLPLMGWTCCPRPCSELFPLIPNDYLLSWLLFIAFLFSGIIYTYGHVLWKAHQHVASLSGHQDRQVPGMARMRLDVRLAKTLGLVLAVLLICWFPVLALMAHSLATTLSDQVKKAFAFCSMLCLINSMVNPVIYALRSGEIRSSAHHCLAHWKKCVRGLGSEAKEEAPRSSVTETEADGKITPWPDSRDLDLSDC
UniProt P47746, whole entry: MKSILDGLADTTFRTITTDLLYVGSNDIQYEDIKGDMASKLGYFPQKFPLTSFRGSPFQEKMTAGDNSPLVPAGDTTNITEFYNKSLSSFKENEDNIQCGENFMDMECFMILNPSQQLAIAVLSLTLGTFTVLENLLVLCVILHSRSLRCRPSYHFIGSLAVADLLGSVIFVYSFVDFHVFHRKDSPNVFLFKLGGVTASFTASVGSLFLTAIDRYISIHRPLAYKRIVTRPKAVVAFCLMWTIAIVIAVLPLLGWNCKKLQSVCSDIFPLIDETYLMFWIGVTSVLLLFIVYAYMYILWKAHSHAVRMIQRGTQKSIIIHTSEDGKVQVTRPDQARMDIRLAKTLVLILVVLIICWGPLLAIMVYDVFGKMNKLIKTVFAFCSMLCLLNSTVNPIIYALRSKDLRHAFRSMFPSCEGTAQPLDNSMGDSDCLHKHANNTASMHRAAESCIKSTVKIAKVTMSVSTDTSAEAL
UniProt Q8NER1, whole entry: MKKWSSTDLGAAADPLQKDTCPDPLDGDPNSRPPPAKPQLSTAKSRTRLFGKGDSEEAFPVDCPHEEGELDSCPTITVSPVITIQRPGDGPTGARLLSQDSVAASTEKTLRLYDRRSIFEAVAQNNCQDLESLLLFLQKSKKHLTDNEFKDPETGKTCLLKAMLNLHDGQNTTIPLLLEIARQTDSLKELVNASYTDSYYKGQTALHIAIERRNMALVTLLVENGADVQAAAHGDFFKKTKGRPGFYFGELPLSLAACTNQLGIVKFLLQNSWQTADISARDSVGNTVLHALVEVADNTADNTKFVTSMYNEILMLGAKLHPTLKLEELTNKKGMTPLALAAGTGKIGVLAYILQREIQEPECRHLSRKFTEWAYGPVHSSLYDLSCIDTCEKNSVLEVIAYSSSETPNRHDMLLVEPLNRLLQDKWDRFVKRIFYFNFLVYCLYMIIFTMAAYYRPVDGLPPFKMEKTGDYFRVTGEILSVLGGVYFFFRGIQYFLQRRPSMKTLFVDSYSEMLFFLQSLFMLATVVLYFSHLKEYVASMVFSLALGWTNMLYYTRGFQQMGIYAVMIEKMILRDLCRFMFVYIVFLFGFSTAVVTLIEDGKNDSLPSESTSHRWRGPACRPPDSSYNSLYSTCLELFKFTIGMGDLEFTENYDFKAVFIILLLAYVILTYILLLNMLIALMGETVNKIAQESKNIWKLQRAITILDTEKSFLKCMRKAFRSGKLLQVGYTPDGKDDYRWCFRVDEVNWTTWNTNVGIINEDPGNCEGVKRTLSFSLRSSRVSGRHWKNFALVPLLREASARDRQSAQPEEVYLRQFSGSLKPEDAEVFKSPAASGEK
UniProt Q9ERZ8, whole entry: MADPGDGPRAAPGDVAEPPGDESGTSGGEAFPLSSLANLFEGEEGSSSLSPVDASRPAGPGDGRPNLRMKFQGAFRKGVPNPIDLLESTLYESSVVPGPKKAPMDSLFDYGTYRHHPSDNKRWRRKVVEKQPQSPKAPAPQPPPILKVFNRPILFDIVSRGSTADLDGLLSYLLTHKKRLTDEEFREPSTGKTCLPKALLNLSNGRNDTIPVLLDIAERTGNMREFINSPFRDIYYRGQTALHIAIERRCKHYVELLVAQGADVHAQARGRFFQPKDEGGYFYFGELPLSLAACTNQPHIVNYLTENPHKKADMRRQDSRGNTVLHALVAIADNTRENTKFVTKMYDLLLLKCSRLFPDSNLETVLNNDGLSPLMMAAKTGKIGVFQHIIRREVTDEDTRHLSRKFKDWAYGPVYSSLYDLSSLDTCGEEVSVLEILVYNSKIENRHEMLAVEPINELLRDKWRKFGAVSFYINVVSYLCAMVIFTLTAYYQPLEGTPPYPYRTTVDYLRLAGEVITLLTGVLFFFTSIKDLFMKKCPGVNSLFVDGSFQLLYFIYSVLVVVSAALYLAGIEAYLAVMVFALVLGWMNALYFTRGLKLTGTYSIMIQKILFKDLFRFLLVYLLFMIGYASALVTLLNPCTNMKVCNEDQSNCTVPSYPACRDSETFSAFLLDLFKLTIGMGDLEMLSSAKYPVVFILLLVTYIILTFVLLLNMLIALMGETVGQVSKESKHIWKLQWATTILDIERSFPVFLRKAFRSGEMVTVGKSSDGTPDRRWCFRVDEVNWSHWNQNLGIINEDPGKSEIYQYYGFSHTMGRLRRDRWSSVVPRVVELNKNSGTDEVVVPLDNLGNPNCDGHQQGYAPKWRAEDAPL
UniProt Q6RI86, whole entry: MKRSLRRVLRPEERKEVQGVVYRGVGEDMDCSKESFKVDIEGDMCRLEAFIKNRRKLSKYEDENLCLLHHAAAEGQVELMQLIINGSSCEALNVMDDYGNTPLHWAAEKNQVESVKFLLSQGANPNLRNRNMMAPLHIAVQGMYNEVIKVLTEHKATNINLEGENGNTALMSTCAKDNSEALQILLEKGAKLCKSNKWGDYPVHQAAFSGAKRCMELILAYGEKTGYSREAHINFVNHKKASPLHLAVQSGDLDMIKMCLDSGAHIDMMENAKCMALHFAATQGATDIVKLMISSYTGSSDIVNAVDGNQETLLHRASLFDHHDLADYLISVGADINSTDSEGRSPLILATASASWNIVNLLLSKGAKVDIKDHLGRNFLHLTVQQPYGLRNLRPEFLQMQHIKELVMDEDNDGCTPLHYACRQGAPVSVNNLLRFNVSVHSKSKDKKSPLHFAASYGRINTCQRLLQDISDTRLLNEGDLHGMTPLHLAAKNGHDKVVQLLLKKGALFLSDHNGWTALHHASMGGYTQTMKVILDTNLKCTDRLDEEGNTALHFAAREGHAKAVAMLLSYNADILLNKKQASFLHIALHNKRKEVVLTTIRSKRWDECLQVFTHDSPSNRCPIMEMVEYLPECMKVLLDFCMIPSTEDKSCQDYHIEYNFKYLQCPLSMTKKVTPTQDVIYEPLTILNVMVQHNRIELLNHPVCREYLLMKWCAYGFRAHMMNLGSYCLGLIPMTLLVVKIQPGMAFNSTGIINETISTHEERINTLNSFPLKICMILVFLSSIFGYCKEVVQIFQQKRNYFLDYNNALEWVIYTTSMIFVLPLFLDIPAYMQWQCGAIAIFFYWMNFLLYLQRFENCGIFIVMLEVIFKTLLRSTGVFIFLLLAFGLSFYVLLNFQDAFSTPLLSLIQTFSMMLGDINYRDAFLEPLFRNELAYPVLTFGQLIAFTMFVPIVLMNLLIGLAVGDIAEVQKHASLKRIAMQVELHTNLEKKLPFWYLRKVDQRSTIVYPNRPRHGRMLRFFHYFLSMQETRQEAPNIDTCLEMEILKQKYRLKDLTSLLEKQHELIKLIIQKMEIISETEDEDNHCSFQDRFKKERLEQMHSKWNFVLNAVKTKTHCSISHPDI

Assays:
[1] = biological target: T1, hCB2R (Homo sapiens, UniProt P34972); test: biochemical; format: binding; settings: for Ki: pKi ± SEM hCB2R, CHO membranes, Leiden, HU210 and SR144528 from Roche
[2] = biological target: T2, mCB1R (Mus musculus, UniProt P47746); test: biochemical; format: binding
[3] = biological target: T1, hCB2R; test: biochemical
[4] = biological target: T1, hCB2R; test: cell-based
[5] = biological target: T2, mCB1R; test: biochemical
[6] = biological target: T1, hCB2R; test: cell-based; remark: listed apart in the source
[7] = biological target: T1, hCB2R; test: cell-based; settings: for EC50: pEC50 ± SEM pERK hCB2R
[8] = biological target: T1, hCB2R; test: cell-based; remark: listed apart in the source
[9] = biological target: Human recombinant TRPV1 (Homo sapiens, UniProt Q8NER1); format: cell-based
[10] = biological target: T3, Rat recombinant TRPV3 (Rattus norvegicus, UniProt Q4QYD9); format: cell-based
T3 sequence (Q4QYD9 1-791): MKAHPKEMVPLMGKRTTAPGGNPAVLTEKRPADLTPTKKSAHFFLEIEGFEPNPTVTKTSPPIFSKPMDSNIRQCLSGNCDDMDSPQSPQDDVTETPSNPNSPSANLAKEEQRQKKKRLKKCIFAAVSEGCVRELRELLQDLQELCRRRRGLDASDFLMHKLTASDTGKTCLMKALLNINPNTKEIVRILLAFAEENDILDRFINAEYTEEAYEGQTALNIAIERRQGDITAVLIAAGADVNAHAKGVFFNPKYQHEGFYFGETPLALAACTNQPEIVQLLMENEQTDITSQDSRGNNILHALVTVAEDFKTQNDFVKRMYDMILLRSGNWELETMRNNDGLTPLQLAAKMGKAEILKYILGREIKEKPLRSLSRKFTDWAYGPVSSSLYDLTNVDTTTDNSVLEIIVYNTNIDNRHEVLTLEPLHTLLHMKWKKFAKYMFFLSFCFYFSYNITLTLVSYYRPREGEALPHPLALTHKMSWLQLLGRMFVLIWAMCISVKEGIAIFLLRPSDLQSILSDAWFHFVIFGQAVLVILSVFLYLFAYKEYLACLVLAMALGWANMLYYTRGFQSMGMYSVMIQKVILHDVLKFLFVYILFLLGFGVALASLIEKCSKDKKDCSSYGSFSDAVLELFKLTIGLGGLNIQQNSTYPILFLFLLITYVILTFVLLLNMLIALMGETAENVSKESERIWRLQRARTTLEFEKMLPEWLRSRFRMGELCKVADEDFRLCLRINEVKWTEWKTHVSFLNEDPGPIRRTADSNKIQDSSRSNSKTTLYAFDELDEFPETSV

[11] = biological target: Rat recombinant TRPV4 (Rattus norvegicus, UniProt Q9ERZ8); format: cell-based; settings: read-out: TRPV4 IC50 for desensitization
[12] = biological target: Rat recombinant TRPA1 (Rattus norvegicus, UniProt Q6RI86)
[13] = tested on: AEA reuptake in HaCaT cells; test: cells; format: cell-based; settings: Homo sapiens, read-out: AEA reuptake IC50 (95% CI) HaCaT cells

`CCCCC/C=C\C/C=C\C/C=C\C/C=C\CCCC(=O)NCCO` [Anandamide, N-arachidonoylethanolamine] was tested, and the Ki [1] was ~100 nM and 123 nM, the Ki [2] was 74.1 nM and the EC50 [3] was 427 nM. The EC50 [4] was 1170 nM, the EC50 ([5]; pEC50 ± SEM cAMP mCB1R) was > 6310 nM and 7240 nM and the EC50 [6] was 617 nM. The EC50 [7] was 3890 nM and > 3160 nM and the EC50 [8] was 5130 nM.

In the case of `CCCCCCC(C)(C)c1cc(OC)c([C@@H]2C=C(CO)[C@@H]3C[C@H]2C3(C)C)c(OC)c1` [HU308], the Ki [1] is reported as 36.3 nM, the EC50 [3] is reported as 51.3 nM and the EC50 ([7]; antagonists in presence of EC80 of CP55940) is reported as 138 nM.

With `Cc1c(C(=O)NN2CCCCC2)nn(-c2ccc(Cl)cc2Cl)c1-c1ccc(I)cc1` [AM251] the “pKi ± SEM hCB2R” value [1] was 6.92 ± 0.24, the “pEC50 ± SEM GTPγS hCB2R” value [3] was 6.14 ± 0.11 and the “pEC50 ± SEM cAMP hCB2R” value [4] was 6.75 ± 0.03. For the same compound, the “pEC50 ± SEM β-AR recruitment hCB2R” value [6] was 5.75 ± 0.34, the “pEC50 ± SEM pERK hCB2R” value [7] was 4.72 ± 0.06 and the “pEC50 ± SEM GIRK hCB2R” value [8] was 5.11 ± 0.12. For the same compound, the “TRPV1 Efficacy (% ionomycin 4μM)” value [9] was < 10%, the IC50 ([10]; read-out: TRPV3 IC50 for antagonism or desensitization) was > 50000 nM and the EC50 ([10]; read-out: TRPV3 Potency EC50) was 600 nM. For the same compound, the IC50 [11] was 1200 ± 100 nM, the IC50 ([12]; read-out: TRPA1 IC50 for antagonism or desensitization) was 17100 nM and the EC50 ([12]; read-out: TRPA1 Potency EC50) was 860 nM.

`Cc1c(C(=O)NN2CCCCC2)nn(-c2ccc(Cl)cc2Cl)c1-c1ccc(Cl)cc1` [SR141716A] gave an Emax ([5]; read-out: Emax cAMP mCB1R) of -100% and an IC50 [13] of 2900 nM.

Where “and” joins values, the source holds several entries; their conditions need not be identical. Identical values can stand only once.
